Laboratory results reported in patent US20200121677A1, “SUBSTITUTED 6,7-DIHYDROPYRAZOLO[1,5-a]PYRAZINES AS NEGATIVE ALLOSTERIC MODULATORS OF MGLUR2 RECEPTORS” (Janssen Pharmaceutica NV, priority 2014, published 2020).

Protein sequences, listed by entry. Tags and fused reporters are not part of them. Residues count along the entry.
UniProt Q14416, 19-872 limits assumed: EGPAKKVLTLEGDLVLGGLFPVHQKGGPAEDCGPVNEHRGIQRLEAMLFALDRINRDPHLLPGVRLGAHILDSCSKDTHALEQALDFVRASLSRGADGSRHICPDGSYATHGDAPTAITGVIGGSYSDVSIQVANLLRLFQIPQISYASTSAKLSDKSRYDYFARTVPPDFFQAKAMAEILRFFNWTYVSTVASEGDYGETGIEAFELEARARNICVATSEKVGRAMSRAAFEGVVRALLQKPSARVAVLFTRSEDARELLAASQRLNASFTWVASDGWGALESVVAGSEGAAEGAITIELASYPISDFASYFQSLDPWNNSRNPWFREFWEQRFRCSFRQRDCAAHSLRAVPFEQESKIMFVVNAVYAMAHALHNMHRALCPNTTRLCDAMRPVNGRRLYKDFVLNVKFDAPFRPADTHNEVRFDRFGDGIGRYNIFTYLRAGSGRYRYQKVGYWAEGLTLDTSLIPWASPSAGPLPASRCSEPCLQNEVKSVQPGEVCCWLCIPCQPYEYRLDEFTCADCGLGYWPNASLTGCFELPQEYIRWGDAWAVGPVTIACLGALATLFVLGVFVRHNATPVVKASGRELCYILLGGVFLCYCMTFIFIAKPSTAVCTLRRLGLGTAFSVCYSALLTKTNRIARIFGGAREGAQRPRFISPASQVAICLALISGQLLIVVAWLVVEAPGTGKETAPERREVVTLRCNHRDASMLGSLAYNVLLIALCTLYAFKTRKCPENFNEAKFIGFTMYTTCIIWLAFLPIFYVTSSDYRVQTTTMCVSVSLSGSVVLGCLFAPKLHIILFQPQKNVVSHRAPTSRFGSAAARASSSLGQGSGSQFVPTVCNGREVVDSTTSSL

Tests used:
human mGlu2 receptor = human mGlu2 receptor (Homo sapiens, UniProt Q14416); experiment: [35S]GTPγS binding assay, mGluR2 negative allosteric modulation (membranes from CHO cells transfected with human mGlu2 receptor, glutamate ~EC80 60 μM); settings: for GTPγS - hmGluR2 anGT pIC50: membranes with human mGlu2 receptor, glutamate ~EC80 (60 μM), pIC50 = -log IC50 (M); for GTPγS - hmGluR2 anGT Emax: relative maximal effect: maximal % inhibition relative to the control glutamate response;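 on all read-outs here: membranes preincubated 30 min at 30 °C with compound plus glutamate, then [35S]GTPγS (0.1 nM) incorporation measured over another 30 min at 30 °C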
rats = experiment: Reversal of the effect of the mGluR2 PAM JNJ-42153605-induced inhibition of scopolamine-induced hyperlocomotion; type: in vivo, rat; settings: route PO, criterion total distance >1500 cm

Row | SMILES | GTPγS - hmGluR2 anGT pIC50 (human mGlu2 receptor) | GTPγS - hmGluR2 anGT Emax (human mGlu2 receptor) | ED50 SCOP JNJ-42153605 (Reversal of the effect of JNJ 42153605 on scopolamine-induced hyperlocomotion) (rats)
1 | COCC1CN(c2ccc(C(F)(F)F)cc2)C(=O)c2c(C(=O)Nc3ccnc(C)c3)cnn21 (single isomer, unassigned) [94] | 7.7 | 115% | –
2 | Cc1cc(NC(=O)c2cnn3c2C(=O)N(c2ccc(Cl)c(Cl)c2)C[C@@H]3C)ccn1 | 8.66 | – | 1.26 mg/kg
3 | Cc1cccnc1NC(=O)c1cnn2c1C(=O)N(c1ccc(C(F)(F)F)cc1)C[C@@H]2C | 6.62 | – | –
4 | COCC1CN(c2ccc(C(F)(F)F)cc2)C(=O)c2c(C(=O)Nc3ccnc(C)c3)cnn21 (racemic) | 7.32 | 117% | –
5 | Cc1ccnc(NC(=O)c2cnn3c2C(=O)N(c2ccc(C(F)(F)F)cc2)C[C@@H]3C)c1 | 7.95 | – | >0.63 mg/kg
6 | COc1cc(N2C[C@H](C)n3ncc(C(=O)Nc4ccnc(C)c4)c3C2=O)ccc1C(F)(F)F | 7.8 | – | –
7 | Cc1cc(NC(=O)c2cnn3c2C(=O)N(c2ccc(C(F)F)c(Cl)c2)C[C@@H]3C)ccn1 | 8.53 | – | 1.99 mg/kg
